Reference: ChEMBL document CHEMBL4371059 (J Med Chem, 2019)
Active and inactive are the calls of the source. The calls are words filed in the database; no cut-off is given here.

Chains of the proteins cited; added tags and fusions are not shown. Lines headed by an entry give the natural chain unless they say otherwise; changes in a name come on top.
UniProt Q60492, whole entry, looked up: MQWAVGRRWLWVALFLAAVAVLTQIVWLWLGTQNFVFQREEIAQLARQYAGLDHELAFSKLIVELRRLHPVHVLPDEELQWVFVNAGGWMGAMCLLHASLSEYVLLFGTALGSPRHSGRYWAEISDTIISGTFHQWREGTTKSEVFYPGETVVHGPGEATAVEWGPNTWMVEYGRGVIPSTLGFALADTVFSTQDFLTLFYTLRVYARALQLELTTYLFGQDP
UniProt P41145: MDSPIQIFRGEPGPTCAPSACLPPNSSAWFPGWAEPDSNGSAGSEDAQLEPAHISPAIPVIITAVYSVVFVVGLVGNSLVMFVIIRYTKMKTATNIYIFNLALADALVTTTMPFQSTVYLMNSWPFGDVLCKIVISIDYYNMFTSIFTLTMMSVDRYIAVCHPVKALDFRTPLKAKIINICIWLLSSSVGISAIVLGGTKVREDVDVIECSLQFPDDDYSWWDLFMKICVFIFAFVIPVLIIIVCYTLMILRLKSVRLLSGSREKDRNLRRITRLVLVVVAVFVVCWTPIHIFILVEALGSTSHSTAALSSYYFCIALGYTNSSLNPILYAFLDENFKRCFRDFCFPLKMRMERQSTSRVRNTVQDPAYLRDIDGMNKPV
UniProt P33533, whole entry, looked up: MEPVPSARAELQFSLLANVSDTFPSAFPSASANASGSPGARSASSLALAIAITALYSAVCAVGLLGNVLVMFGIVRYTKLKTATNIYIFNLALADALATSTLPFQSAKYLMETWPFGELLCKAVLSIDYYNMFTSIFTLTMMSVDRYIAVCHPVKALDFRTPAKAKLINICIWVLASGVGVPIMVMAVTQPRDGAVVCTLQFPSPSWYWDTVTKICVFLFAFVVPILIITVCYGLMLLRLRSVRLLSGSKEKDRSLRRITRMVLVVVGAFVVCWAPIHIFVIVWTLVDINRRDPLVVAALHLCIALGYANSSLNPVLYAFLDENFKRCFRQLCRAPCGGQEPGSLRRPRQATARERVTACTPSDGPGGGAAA

Tests used:
Cavia porcellus [1] = species on record: Cavia porcellus; assay: Selectivity ratio of Ki for sigma1 receptor in guinea pig brain membranes to Ki for KOR in guinea pig brain membranes
[2] = biological target: Sigma non-opioid intracellular receptor 1 (Cavia porcellus) (UniProt Q60492); assay: Displacement of [3H]-(+)-pentazocine from sigma1 receptor in guinea pig brain membranes at 1 uM after 120 mins by scintillation counting method relative to control
[3] = biological target: Kappa-type opioid receptor (Homo sapiens) (UniProt P41145); assay: Agonist activity at human KOR expressed in HEK293T cells assessed as inhibition of Galphai-mediated cAMP accumulation after 15 mins by microbeta counting assay relative to salvinorin A
[4] = Selectivity ratio of Ki for sigma2 receptor in rat liver membranes to Ki for KOR in guinea pig brain membranes
[5] = biological target: Kappa-type opioid receptor (Homo sapiens) (UniProt P41145); assay: Agonist activity at Tango-KOR (unknown origin) expressed in HTLA cells harboring TEV-fused-beta-arrestin 2 assessed as increase in beta arrestin 2 recruitment after overnight incubation by BrightGlo reagent based assay relative to salvinorin A
[6] = biological target: T1, Sigma intracellular receptor 2 (Rattus norvegicus) (UniProt Q5U3Y7); assay: Displacement of [3H]DTG from sigma2 receptor in rat liver membranes at 1 uM after 120 mins by scintillation counting method relative to control; assay type: cell membranes
T1 sequence (whole entry): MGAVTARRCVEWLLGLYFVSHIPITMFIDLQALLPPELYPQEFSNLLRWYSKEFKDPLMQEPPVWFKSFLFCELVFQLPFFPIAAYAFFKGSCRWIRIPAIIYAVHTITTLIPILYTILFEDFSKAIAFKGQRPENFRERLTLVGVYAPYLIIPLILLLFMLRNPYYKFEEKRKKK

[7] = biological target: Delta-type opioid receptor (Rattus norvegicus) (UniProt P33533); assay: Displacement of [3H]DPDPE from DOR in Sprague-Dawley rat brain membranes at 1 uM after 120 mins by scintillation counting method relative to control
[8] = Ratio of Ki for displacement of [3H]diprenorphine from human KOR expressed in HEK293T cell membranes to Ki for displacement of [3H]U-69,593 from KOR in guinea pig brain membranes
Dendritic cell = assay: Anti-inflammatory activity in PMA/ionomycin-stimulated OPRK deficient mouse bone marrow derived dendritic cells assessed as reduction in IFNgamma production at 5 ug/ml treated for 48 hrs starting from 12 hrs post PMA/ionomycin stimulation by flow cytometry
T-cell [9] = assay: Immunomodulatory activity in PMA/ionomycin-stimulated OPRK deficient mouse T cells assessed as increase in IL-10 production at 5 ug/ml treated for 48 hrs starting from 12 hrs post PMA/ionomycin stimulation
Cavia porcellus [10] = species on record: Cavia porcellus; assay: Selectivity ratio of Ki for MOR in guinea pig brain membranes to Ki for KOR in guinea pig brain membranes
T-cell [11] = assay: Anti-inflammatory activity in PMA/ionomycin-stimulated OPRK deficient mouse T cells assessed as reduction in IFNgamma production at 5 ug/ml treated for 48 hrs starting from 12 hrs post PMA/ionomycin stimulation by flow cytometry
[12] = Selectivity ratio of Ki for DOR in Sprague-Dawley rat brain membranes to Ki for KOR in guinea pig brain membranes

In the case of `CCCCN1CCN(C(=O)Cc2ccc(Cl)c(Cl)c2)[C@@H]2[C@@H](N3CCCC3)CCC[C@@H]21` (racemic), the Ratio Ki (Cavia porcellus [1]) is reported as 135, the inhibition [2] is reported as > 50% and the Emax [3] is reported as 102%. For the same compound, the Ratio Ki [4] was 230, the Emax [5] was 106% and the inhibition [6] was > 50%. For the same compound, the inhibition [7] was > 50% and the Ratio Ki [8] was 3 to 9.

Compound `O=C(Cc1ccc(Cl)c(Cl)c1)N1CCN(C(=O)COCCF)[C@H]2CCC[C@H](N3CCCC3)[C@H]21` has a Ratio Ki [8] of 3 to 9.

In the case of `O=C(Cc1ccc(Cl)c(Cl)c1)N1CCN(Cc2cn(CCF)nn2)[C@H]2CCC[C@H](N3CCCC3)[C@H]21`, the Activity (Dendritic cell) is reported as “inactive”, the Ratio Ki (Cavia porcellus [1]) is reported as > 180 and the inhibition [2] is reported as 2%. The Activity (T-cell [9]) was “inactive”, the Emax [3] was 103% and the Ratio Ki [4] was > 180. For the same compound, the Ratio Ki (Cavia porcellus [10]) was 100, the Emax [5] was 86% and the Activity (T-cell [11]) was “inactive”. The inhibition [7] was > 50%, the Ratio Ki [12] was 74 and the Ratio Ki [8] was 3 to 9.

With `CCCN1CCN(C(=O)Cc2ccc(Cl)c(Cl)c2)[C@@H]2[C@@H](N3CCCC3)CCC[C@@H]21` (racemic) the inhibition [2] was > 50%, the Emax [3] was 102% and the Emax [5] was 108%. The inhibition [6] was > 50%, the inhibition [7] was > 50% and the Ratio Ki [8] was 3 to 9.

With `CCN1CCN(C(=O)Cc2ccc(Cl)c(Cl)c2)[C@H]2[C@@H]1CCC[C@@H]2N1CCCC1` the inhibition [2] was 11%, the Emax [3] was 103% and the Emax [5] was 99%. The inhibition [7] was > 50% and the Ratio Ki [8] was 3 to 9.

With `O=C(Cc1ccc(Cl)c(Cl)c1)N1CCN(CCF)[C@H]2CCC[C@H](N3CCCC3)[C@H]21` the Ratio Ki (Cavia porcellus [1]) was > 180, the Ratio Ki [4] was > 180 and the Ratio Ki [12] was > 450.

In the case of `O=C(Cc1ccc(Cl)c(Cl)c1)N1CCN[C@H]2CCC[C@H](N3CCCC3)[C@H]21`, the Ratio Ki (Cavia porcellus [1]) is reported as > 180, the inhibition [2] is reported as 0% and the Emax [3] is reported as 103%. The Ratio Ki [4] was > 180, the Ratio Ki (Cavia porcellus [10]) was > 1800 and the Emax [5] was 93%. For the same compound, the inhibition [7] was > 50%, the Ratio Ki [12] was 380 and the Ratio Ki [8] was 3 to 9.

With `CN1CCN(C(=O)Cc2ccc(Cl)c(Cl)c2)[C@H]2[C@@H]1CCC[C@@H]2N1CCCC1` the inhibition [2] was 0%, the Emax [3] was 102% and the Emax [5] was 101%. For the same compound, the inhibition [7] was > 50% and the Ratio Ki [8] was 3 to 9.

With `CC(C)(C)OC(=O)N1CCN(C(=O)Cc2ccc(Cl)c(Cl)c2)[C@@H]2[C@@H](N3CCCC3)CCC[C@@H]21` the inhibition [2] was 12%, the Emax [3] was 94% and the Emax [5] was 102%. The inhibition [7] was > 50% and the Ratio Ki [8] was 3 to 9.

For `O=C(Cc1ccc(Cl)c(Cl)c1)N1CCN(C(=O)Cn2cc(CCCF)nn2)[C@H]2CCC[C@H](N3CCCC3)[C@H]21`, the Ratio Ki (Cavia porcellus [1]) was > 180, the inhibition [2] was 0% and the Ratio Ki [4] was > 180. The Ratio Ki (Cavia porcellus [10]) was > 285, the inhibition [6] was 0% and the inhibition [7] was > 50%. The Ratio Ki [12] was 130.
